What was measured:
Assay type in all cases: cell-based, human
IL-16 = IL-16 ELISA of medium from treated fibroblasts, GD donors; details: TAO orbital fibroblasts, IGF-1 10 nM, TSH high concentrations
Description: (§1) In addition to its therapeutic aspects, the present invention also relates to a diagnostic method for detecting the presence of antibody-activated fibroblasts in the patient. Applicants believe that several auto immune diseases or disorders are associated with antibody-activated fibroblasts. Applicants have shown that increased activation of fibroblasts by auto-antibodies can be monitored by determining the levels of IL-16 and/or RANTES production in a patient. Altered levels of these chemoattractants can be detected in various biological samples in mammals, preferably humans. Levels of IL-16 and/or RANTES may be monitored in a patient, using standard techniques, as an indication of the deleterious aspects of the disease condition. Biological samples, including but not limited to serum, vitreous humor, aqueous humor, synovial fluid, and tissue, will be drawn from the patient using standard techniques. Particularly preferred are serum samples. The measurement of the IL-16 and RANTES levels may be monitored using any method possible to detect the levels of these proteins in biological samples. A preferred method of analysis is by ELISA as described in Sciaky, D. et al., J. Immunol. 164(7):3806-14, 2000. […]
(§2) The levels of IL-16 and RANTES were then assessed with specific ELISAs. […]

p70^s6k = p70^s6k activation in fibroblasts (S6 peptide phosphorylation; western blot Thr389); details: GD fibroblasts; IgG 100 ng/ml; Thr389 western blot or S6 peptide phosphorylation
Description: Confluent monolayers of orbital fibroblasts from two patients with GD (A and B) or a single donor with normal orbital tissue (C) were incubated with nothing (control), normal IgG (100 ng/ml), GD-IgG (100 ng/ml) or IL-1β (10 ng/ml for 15 minutes, cells were rinsed and harvested in lysis buffer. Equivalent amounts of protein were subjected to western blot analysis with pan anti-p70^s6k, phospho-specific anti-p70^s6k Thr389, or anti-actin antibodies. Signals were generated with the ECL method. Column heights represent p70^s6k Thr389 signal densities corrected for their respective actin levels.
As the data in FIG. 2A indicate, TSI activates p70^s6κ. […] The effect of TSI on IL-16 synthesis is time-dependent and has been observed with sera and purified IgG from 6 different patients with severe TAO and has been replicated using three different TAO fibroblast strains.
The induction of IL-16 protein by Graves' IgG is blocked by rapamycin whereas that of RANTES is not. Referring to FIG. 1B, to determine whether Graves' IgG increased levels of activated p70^s6k, Graves'-IgG (100 ng/ml) is determined by western blot immunoblot analysis with a primary antibody specific for p70^s6k phosphorylated at Thr^389. […] Given the ability of rapamycin to block, the activation of p70^s6k appears essential for the induction by Graves' IgG of IL-16 fibroblasts.

RANTES = RANTES ELISA of medium from treated fibroblasts, GD donors; details: TAO orbital fibroblasts; IGF-1 10 nM, TSH high concentrations
Description: as §1, §2

Question: What does the source list for “recombinant TSH: thyrotropin (Thyroid Stimulating Hormone)”?
Answer: induction of IL-16 expression by the substance itself (IL-16): does not; induction of IL-16 expression by the substance itself (IL-16; listed as TSH): fails to provoke; activation of p70^s6k (p70^s6k): does not activate; induction of RANTES expression by the substance itself (RANTES): fails to provoke

— US7998681B2, “Diagnosis and therapy of antibody-mediated inflammatory auto-immune disorders” (Los Angeles Biomedical Research Institute at Harbor-UCLA …, priority 2000, dated 2011)
